Test results taken from article PMC2757638.

Molecular target: recombinant Cse4 (S. cerevisiae) (UniProt P36012)
Assay: in vitro reconstitution of Cse4-H4 tetramers

recombinant yeast histone H4 (from UniProt P02309 1-103) (natural protein; other documents disagree on this pair)
percent of the total input protein forming a Cse4-H4 tetramer: 0.05%
